From US11542254B2, “Methods and composition of 4-substituted benzoylpiperazine-1-substituted carbonyls as beta-catenin/B-cell lymphoma 9 inhibitors” (University of Utah Research Foundation, priority 2016, dated 2023) come the findings set out here.

Chains of the proteins cited; added tags and fusions are not shown. Residues count along the entry.
UniProt P35222, 138-686: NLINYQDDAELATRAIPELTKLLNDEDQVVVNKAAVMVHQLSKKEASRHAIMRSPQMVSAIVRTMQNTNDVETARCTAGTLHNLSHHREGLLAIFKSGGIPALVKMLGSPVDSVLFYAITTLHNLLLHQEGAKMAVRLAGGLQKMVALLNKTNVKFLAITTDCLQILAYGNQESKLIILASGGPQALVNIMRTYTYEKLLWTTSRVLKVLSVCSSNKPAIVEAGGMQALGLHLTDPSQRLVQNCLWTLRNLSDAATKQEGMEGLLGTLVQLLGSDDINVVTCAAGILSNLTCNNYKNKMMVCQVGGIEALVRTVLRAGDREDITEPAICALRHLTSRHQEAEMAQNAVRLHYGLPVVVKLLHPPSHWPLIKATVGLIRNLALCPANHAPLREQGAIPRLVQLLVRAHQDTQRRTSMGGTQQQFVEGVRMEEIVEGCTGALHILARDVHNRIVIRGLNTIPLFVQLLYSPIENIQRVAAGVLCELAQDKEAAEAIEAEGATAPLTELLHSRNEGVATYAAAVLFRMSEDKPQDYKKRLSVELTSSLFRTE

SMILES strings stand for the structures.

The assay concerns the target β-catenin/BCL9 PPI (Homo sapiens (Human), UniProt P35222). Briefly: AlphaScreen competitive inhibition assay, wild-type β-catenin/BCL9 PPI. Type of assay: binding. Particulars: mean ± SD (n=3). The procedure:
Cells were cultured in LB medium with 30 μg/mL kanamycin until the OD600 was approximately 0.8, and then protein expression was induced with 400 μM of IPTG at 20° C. overnight. Cells were lysed by sonication. […] Native non-denaturing gel electrophoresis was performed to confirm the homogeneity of the purified proteins. Thermal-shift assay was performed on an iCycler iQ Real Time Detection System (Bio-Rad) to monitor protein stability and detect protein aggregation. Protein unfolding was evaluated through measuring the fluorescence changes of fluorescent dye Sypro Orange when interacting with wild-type or mutant β-catenin proteins. A temperature increment of 1°/min was applied. […] All spectra were recorded at room temperature, and the baseline control containing all of the substances except protein. Sample were prepared at a concentration around 1-5 μM in a buffer of 10 mM potassium phosphate and 100 mM potassium fluoride at pH 7.0 to ensure that the transmission of light through the sample was not restricted. […] Proteins were aliquoted and stored at −80° C.
25. Alphascreen Competitive Inhibition Assays Using Wild-Type and Mutant β-Catenin Proteins
On the technique in general: In Alpha technology, singlet oxygen from a donor bead excites a nearby acceptor bead.

Compound `CC1CCC(c2cc(C(=O)N3CCN(C(=O)c4cc(F)cc(N5CCNCC5)c4)CC3)ccc2O[C@H]2CCNC2)CC1.Cl` (stereo partly drawn) [Compound 12, (S)-(4-(3-fluoro-5-(piperazin-1-yl)benzoyl)piperazin-1-yl) (3-(4-methylcyclohexyl)-4-(pyrrolidin-3-yloxy)phenyl) methanone hydrochloride] registered a Ki of 16 ± 5.5 µM.

Usually Ki stands for the dissociation constant of the complex between target and ligand, obtained from inhibition or displacement. A high value points to lower affinity.
